Earlier results in patent US5175145A, “Treatment of diabetes mellitus with amylin agonists” (Amylin Pharmaceuticals, Inc., priority 1992, dated 1992).

Conditions: administered to rats

calcitonin gene related peptide (ACDTATCVTHRLAGLLSRSGGVVKNNFVPTNVGSKAF; Calcitonin gene-related peptide 1; UniProt P06881 83-119, looked up) [CGRP, peptide structurally similar to amylin (46% identity with human CGRP-2)]
effects on blood pressure and blood catecholamine levels: exerts significant effects on blood pressure and blood catecholamine levels
